# Measurements reported in patent EP1976513B1 (priority 2006, dated 2007).
# Protein sequences, listed by entry. Tags and fused reporters are not part of them.
# UniProt P23975, whole entry: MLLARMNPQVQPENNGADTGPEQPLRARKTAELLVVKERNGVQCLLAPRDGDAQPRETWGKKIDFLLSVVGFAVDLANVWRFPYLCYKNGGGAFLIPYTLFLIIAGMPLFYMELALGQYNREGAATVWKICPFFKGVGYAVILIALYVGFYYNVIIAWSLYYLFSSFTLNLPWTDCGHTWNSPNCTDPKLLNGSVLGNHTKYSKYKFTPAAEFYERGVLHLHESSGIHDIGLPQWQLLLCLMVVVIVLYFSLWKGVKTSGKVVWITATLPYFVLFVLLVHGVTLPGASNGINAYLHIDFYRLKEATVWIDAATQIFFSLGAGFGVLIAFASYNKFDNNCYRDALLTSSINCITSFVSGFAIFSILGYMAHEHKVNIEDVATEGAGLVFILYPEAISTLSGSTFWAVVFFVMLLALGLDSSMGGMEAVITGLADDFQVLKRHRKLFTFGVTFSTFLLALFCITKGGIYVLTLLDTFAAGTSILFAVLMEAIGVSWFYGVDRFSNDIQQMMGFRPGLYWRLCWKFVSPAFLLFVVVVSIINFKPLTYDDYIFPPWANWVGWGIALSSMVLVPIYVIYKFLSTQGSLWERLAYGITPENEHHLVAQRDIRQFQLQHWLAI
# UniProt Q01959, whole entry: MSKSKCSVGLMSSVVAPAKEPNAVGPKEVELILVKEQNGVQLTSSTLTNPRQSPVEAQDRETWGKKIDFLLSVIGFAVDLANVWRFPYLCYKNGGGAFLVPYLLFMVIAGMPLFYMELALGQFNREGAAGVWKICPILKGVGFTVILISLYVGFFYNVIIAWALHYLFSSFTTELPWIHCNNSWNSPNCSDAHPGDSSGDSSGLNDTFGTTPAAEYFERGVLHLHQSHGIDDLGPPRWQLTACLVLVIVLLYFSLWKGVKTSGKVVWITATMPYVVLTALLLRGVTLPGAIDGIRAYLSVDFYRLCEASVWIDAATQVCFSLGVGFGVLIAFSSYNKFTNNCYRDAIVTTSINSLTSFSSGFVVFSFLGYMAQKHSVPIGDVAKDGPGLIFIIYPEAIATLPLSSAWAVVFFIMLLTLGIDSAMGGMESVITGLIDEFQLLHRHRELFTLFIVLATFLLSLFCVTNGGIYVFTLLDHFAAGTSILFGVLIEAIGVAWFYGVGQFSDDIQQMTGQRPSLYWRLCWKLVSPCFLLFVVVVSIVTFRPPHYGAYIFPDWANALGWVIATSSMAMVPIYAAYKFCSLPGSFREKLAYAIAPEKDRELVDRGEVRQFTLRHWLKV
# UniProt P31645, whole entry: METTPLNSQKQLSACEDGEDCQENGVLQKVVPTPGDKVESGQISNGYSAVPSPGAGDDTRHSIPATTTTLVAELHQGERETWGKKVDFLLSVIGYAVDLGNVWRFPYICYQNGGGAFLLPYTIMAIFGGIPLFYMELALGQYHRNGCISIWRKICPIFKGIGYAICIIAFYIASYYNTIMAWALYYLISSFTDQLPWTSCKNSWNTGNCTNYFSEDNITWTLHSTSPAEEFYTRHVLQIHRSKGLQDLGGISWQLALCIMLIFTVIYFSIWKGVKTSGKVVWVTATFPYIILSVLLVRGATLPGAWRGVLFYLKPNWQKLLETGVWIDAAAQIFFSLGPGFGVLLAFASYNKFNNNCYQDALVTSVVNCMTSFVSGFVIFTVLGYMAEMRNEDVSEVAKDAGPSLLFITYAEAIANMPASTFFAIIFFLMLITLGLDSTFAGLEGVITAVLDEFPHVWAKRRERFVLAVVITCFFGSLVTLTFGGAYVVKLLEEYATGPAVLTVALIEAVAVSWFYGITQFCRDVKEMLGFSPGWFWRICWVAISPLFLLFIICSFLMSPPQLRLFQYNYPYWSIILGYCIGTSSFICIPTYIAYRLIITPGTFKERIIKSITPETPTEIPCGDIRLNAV
# Read-outs that look alike come from different tables or passages of the source.
# Legend:
# Test in all cases: cell-based
# [1] = target: human norepinephrine reuptake transporter (Homo sapiens, UniProt P23975)
# [2] = target: T1, human dopamine reuptake transporter (Homo sapiens, UniProt Q01959); conditions: Human IC50 (nM) hDAT
# T1 construct: expressed in transfected cells; host or cells: CHO-K1 or HEK293
# [3] = target: human serotonin reuptake transporter (Homo sapiens, UniProt P31645); conditions: Human IC50 (nM) hSERT
compound,measurement,setting,value
"CC(C)CC(N)C1(c2ccc(Cl)c(Cl)c2)CCCCC1 (racemic) [Compound 3, 1-(1-(3,4-dichlorophenyl)cyclohexyl)-3-methylbutan-1-amine]",IC50,[1]; Human IC50 (nM) hNET,888 nM
"CN(C)CC1(c2ccc3ccccc3c2)CCC(O)CC1 (centres unmarked) [Compound 228, 4-((dimethylamino)methyl)-4-(naphthalen-2-yl)cyclohexanol]",IC50,[1]; read-out: Human IC50 (nM) hNET,387 nM
"CN(C)CC1(c2ccc3ccccc3c2)CCC(O)CC1 (centres unmarked) [Compound 229, 4-((dimethylamino)methyl)-4-(naphthalen-2-yl)cyclohexanol]",IC50,[1]; read-out: Human IC50 (nM) hNET,33 nM
"CNC(C)C1(c2ccc(OC(F)(F)F)cc2)CCCCC1 (single isomer, unassigned) [64 E2, N-methyl-1-(1-(4-(trifluoromethoxy)phenyl)cyclohexyl)ethanamine]",IC50,[1]; Human IC50 (nM) hNET,2650 nM
"CC(C)CC(N)C1(c2ccc(Cl)cc2)CCCCC1 (single isomer, unassigned) [21 E1, 1-(1-(4-chlorophenyl)cyclohexyl)-3-methylbutan-1-amine]",IC50,[2],234 nM
"CNC(CC(C)C)C1(c2ccc(Cl)c(Cl)c2)CCCCC1 (racemic) [Compound 45, 1-(1-(3,4-dichlorophenyl)cyclohexyl)-N,3-dimethylbutan-1-amine]",IC50,[3],5940 nM
"CC(C)C(N)C1(c2ccc(Cl)cc2)CCCCC1 (racemic) [Compound 14, 1-(1-(4-chlorophenyl)cyclohexyl)-2-methylpropan-1-amine]",IC50,[3],2950 nM
"CNCC1(c2ccc3ccccc3c2)CCC(C)(O)CC1 (centres unmarked) [Compound 222, 1-methyl-4-((methylamino)methyl)-4-(naphthalen-2-yl)-cyclohexanol]",IC50,[1]; read-out: Human IC50 (nM) hNET,5350 nM
"CC(N)C1(c2ccc(-c3ccccc3)cc2)CCCCC1 (racemic) [Compound 7, 1-(1-(biphenyl-4-yl)cyclohexyl)ethanamine]",IC50,[2],527 nM
"CC(C)CC(N(C)C)C1(c2ccc(Cl)c(Cl)c2)CCCCC1 (racemic) [Compound 46, 1-(1-(3,4-dichlorophenyl)cyclohexyl)-N,N,3-trimethylbutan-1-amine]",IC50,[3],> 10000 nM
same,IC50,[2],349 nM
"CNC(C)C1(c2cccc3ccccc23)CCCCC1 (single isomer, unassigned) [59 E1, N-methyl-1-(1-(naphthalen-1-yl)cyclohexyl)ethanamine]",IC50,[1]; Human IC50 (nM) hNET,486 nM
"CNC(C)C1(c2cccc3ccccc23)CCCCC1 (single isomer, unassigned) [59 E2, N-methyl-1-(1-(naphthalen-1-yl)cyclohexyl)ethanamine]",IC50,[1]; Human IC50 (nM) hNET,2200 nM
"CNCC1(c2ccc3ccccc3c2)CCC(C)(O)CC1 (centres unmarked) [Compound 223, 1-methyl-4-((methylamino)methyl)-4-(naphthalen-2-yl)cyclohexanol]",IC50,[1]; read-out: Human IC50 (nM) hNET,145 nM
"CN(C)CC1(c2ccc(Cl)c(Cl)c2)CCCC(F)(F)C1 (single isomer, unassigned) [206 E2, 1-(1-(3,4-dichlorophenyl)-3,3-difluorocyclohexyl)-N,N-dimethylmethanamine]",IC50,[1]; Human IC50 (nM) hNET,7 nM
same,IC50,[3],306 nM
"CNCC1(c2ccc(Cl)c(Cl)c2)CCCC(F)(F)C1 (single isomer, unassigned) [205 E1, 1-(1-(3,4-dichlorophenyl)-3,3-difluorocyclohexyl)-N-methylmethanamine]",IC50,[2],800 nM
"CNC(C(C)C)C1(c2ccc(Cl)cc2)CCCCC1 (racemic) [Compound 54, 1-(1-(4-chlorophenyl)cyclohexyl)-N,2-dimethylpropan-1-amine]",IC50,"[1]; recombinant human norepinephrine transporter (NET), read-out: Human IC50 (nM) hNET",857 nM
"CC(N(C)C)C1(c2ccc3ccccc3c2)CCCCC1 (racemic) [Compound 55, N,N-dimethyl-1-(1-(naphthalen-2-yl)cyclohexyl)ethanamine]",IC50,[3],< 1 nM
"CNC(C)C1(c2ccc(OC(F)(F)F)cc2)CCCCC1 (single isomer, unassigned) [64 E1, N-methyl-1-(1-(4-(trifluoromethoxy)phenyl)cyclohexyl)ethanamine]",IC50,[1]; Human IC50 (nM) hNET,2800 nM
